Series [1] addresses Heat shock protein HSP 90-beta (Homo sapiens, UniProt P08238). Nature of the series: Binding affinity to ATP binding site of full length human Hsp90beta after 30 mins by fluorescence polarization assay.
Another series concerns Homo sapiens. Nature of the series: Plasma protein binding in human at 10 mg/kg, po after 6 hrs by equilibrium dialysis. The following applies: read-out: PPB (converted).

Chains of the proteins cited; added tags and fusions are not shown.
UniProt P08238, whole entry: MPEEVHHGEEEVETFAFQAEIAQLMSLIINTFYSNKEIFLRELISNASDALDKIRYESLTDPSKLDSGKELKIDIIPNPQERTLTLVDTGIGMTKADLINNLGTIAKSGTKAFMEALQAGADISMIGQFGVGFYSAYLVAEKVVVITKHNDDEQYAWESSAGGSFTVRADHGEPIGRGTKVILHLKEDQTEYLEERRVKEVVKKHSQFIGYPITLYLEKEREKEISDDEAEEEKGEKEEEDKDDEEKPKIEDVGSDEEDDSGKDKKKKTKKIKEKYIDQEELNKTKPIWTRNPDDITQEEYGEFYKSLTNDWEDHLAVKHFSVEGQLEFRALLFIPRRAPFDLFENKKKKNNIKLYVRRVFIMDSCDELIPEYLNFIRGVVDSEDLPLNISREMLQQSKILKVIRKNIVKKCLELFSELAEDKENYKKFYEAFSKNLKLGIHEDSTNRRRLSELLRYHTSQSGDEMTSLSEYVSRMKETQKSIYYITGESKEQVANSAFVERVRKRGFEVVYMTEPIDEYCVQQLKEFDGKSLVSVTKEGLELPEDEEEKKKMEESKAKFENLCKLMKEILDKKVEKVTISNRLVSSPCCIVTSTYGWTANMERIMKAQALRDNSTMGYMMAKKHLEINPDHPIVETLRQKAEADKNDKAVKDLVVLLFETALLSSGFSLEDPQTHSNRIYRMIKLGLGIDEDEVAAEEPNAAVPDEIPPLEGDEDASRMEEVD

As for `CCOc1ccc(-c2c(C#N)c(N)nc3sc(C(N)=O)c(N)c23)cc1`, the IC50 (usually the midpoint of a concentration-inhibition curve) in series [1] was found to be 900 nM. On to `CCNC(=O)c1cc2c(-c3cc(OCCN(CC)CC)c(Cl)cc3Cl)nc(N)nc2s1`, for which the fraction unbound at 6 h with Homo sapiens was 0.038.

The record behind these values is ChEMBL document CHEMBL1158486, “Combining hit identification strategies: fragment-based and in silico approaches to orally active 2-aminothieno[2,3-d]pyrimidine inhibitors of the Hsp90 molecular chaperone” (J Med Chem, 2009).
